Values of other authors as cited in article PMC6121244, “Differences in Functional Expression of Connexin43 and NaV1.5 by Pan- and Class-Selective Histone Deacetylase Inhibition in Heart” (International Journal of Molecular Sciences, 2018).

Test system: cardiac sodium current (INa) in NMVMs, primarily NaV1.5
Parameters: method as in PMID 27638876
Settings: previous experiments ref 13; cited from earlier work

O=C(CCCCCCC(=O)Nc1ccccc1)NO [VOR, suberoylanilide hydroxamic acid]
positive shift in half activation voltage (V½): +2 to +8 mV
shift in Vm-dependent gNa inactivation curve: no shift
